# Results published in PMC11088064 (2024).
# B1: hPD-1 (PD-1-H5221, ACRO Biosystems) (receptor)
# chain: LDSPDRPWNPPTFSPALLVVTEGDNATFTCSFSNTSESFVLNWYRMSPSNQTDKLAAFPEDRSQPGQDCRFRVTQLPNGRDFHMSVVRARRNDSGTYLCGAISLAPKAQIKESLRAELRVTERRAEVPTAHPSPSPRPAGQFQTLV
# Biological target: Opdivo
# Test: SPR; pH 6.0
binder,measurement,value
B1,Kd,1.03 nM
